Experiment [1] addresses T1, 5-hydroxytryptamine receptor 7 (Homo sapiens, UniProt P34969). The following applies: HEK293, time 22.0 hrs.
The target in experiment [2] is T1, 5-hydroxytryptamine receptor 7. The note with it: HEK293, time 30.0 min.

By UniProt entry, the sequences of proteins in these tests, tags left out.
UniProt P34969, whole entry: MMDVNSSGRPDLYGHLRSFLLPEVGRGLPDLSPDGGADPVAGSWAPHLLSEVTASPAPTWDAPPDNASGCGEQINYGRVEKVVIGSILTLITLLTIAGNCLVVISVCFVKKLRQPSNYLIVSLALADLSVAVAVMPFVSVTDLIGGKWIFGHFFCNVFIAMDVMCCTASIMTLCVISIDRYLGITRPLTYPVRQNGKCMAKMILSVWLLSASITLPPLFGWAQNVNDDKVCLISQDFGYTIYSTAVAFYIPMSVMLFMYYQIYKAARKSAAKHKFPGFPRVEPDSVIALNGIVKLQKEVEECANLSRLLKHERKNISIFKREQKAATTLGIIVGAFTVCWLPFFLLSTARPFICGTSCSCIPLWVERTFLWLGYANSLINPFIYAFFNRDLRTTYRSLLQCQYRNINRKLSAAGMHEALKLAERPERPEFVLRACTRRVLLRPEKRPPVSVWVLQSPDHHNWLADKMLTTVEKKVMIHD

Calls of active or inactive are those of the source. The calls are words filed in the database; no cut-off is given here.

The values that follow come from ChEMBL document CHEMBL5038590, “Discovery of G Protein-Biased Ligands against 5-HT7R” (J Med Chem, 2021).

On to `CCNCCc1ccc(Cl)c(-c2ccccc2OC)c1.Cl`, for which the pEC50 entry in experiment [1] is “inactive”.
Same read-out and setting: the same measure for `CCCN(CCC)CCc1ccc(Cl)c(-c2ccccc2OC)c1`: “inactive”.
For `CCN(CC)Cc1ccc(Cl)c(-c2ccccc2OC)c1`, the pEC50 entry in experiment [2] and in experiment [1] was “inactive” each time.
In the case of `CCN(CC)CCc1ccc(Cl)c(-c2ccccc2OC)c1`, the pEC50 entry in experiment [1] was “inactive”.
Turning to `CCCN(CCC)Cc1ccc(Cl)c(-c2ccccc2OC)c1`, the pEC50 entry in experiment [2] and in experiment [1] was “inactive” each time.
For `CCCNCCc1ccc(Cl)c(-c2ccccc2OC)c1.Cl`, in experiment [1], the pEC50 entry was “inactive”.
For `CCCCNCCc1ccc(Cl)c(-c2ccccc2OC)c1.Cl`, the pEC50 result in experiment [2] and in experiment [1] was “inactive” each time.
